The term IC50 denotes the concentration at which inhibition is half-maximal.

Amino acid sequences for entries named in this document (tags omitted).
UniProt Q13547, whole entry: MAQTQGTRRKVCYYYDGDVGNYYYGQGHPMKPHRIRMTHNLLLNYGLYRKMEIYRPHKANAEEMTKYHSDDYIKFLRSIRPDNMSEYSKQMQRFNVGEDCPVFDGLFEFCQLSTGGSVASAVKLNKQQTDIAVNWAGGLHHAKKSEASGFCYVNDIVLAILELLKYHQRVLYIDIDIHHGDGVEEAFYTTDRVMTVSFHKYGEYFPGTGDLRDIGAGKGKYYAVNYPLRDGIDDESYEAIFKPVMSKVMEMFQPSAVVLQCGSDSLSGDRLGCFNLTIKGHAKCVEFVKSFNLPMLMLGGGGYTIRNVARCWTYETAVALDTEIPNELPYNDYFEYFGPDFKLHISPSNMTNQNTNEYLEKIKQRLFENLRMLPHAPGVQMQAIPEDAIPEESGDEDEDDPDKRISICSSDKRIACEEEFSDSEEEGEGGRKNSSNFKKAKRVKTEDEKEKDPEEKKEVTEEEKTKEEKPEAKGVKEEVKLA

Among the data in patent publication US8551988B2, “Benzimidazole derivatives: preparation and pharmaceutical applications” (Mei Pharma, Inc., priority 2003, dated 2013) are IC50 values, retold here.

For the assay, the target named is HDAC1 enzyme (recombinant GST-HDAC1) (Homo sapiens (Human), UniProt Q13547). Briefly: In vitro HDAC assay (BIOMOL fluorescent-based HDAC activity assay), HDAC1. The class given is biochemical.

On to `O=C(/C=C/c1ccc2c(c1)ncn2CCCO)NO` [Compound 47, N-Hydroxy-3[1-(3-hydroxy-propyl)-1H-benzimidazol-5-yl]-acrylamide], for which the IC50 amounted to 1090 nM.
